Source: ChEMBL document CHEMBL1126150, “New kappa-receptor agonists based upon a 2-[(alkylamino)methyl]piperidine nucleus” (J Med Chem, 1992)

Test system: Mus musculus
Assay: Antinociceptive activity was determined using the mouse acetylcholine-induced abdominal constriction test followed by subcutaneous administration
Conditions: Abdomen

## CN(C(=O)Cc1ccc(Cl)c(Cl)c1)C1CCCCC1N1CCCC1 (stereo unspecified)
  ED50: 0.41 mg/kg
